Measurements: PubChem BioAssay AID2563 (Broad Institute, 2010)
This is a selection; strong and weak results do not stand in their true shares. Some of these compounds have results that are not shown, active ones among them. Calls of active or inactive are those of the source.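 How the source made its calls: active means fall in fluorescence gain of 50% or more versus controls, with final raw signal at or below 3038400; inconclusive means same 50% fall but final raw signal above 3038400; inactive means fall in fluorescence gain under 50%.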

Amino acid sequences for entries named in this document (tags omitted).
UniProt Q03530, whole entry: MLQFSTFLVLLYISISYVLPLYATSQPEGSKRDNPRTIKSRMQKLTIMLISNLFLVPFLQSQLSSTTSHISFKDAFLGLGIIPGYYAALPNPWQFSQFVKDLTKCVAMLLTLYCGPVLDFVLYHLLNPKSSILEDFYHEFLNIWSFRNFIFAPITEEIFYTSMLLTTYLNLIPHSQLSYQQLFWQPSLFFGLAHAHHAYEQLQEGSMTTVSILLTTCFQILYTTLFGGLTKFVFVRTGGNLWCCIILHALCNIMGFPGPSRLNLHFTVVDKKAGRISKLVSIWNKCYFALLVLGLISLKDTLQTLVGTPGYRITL

What follows are molecules tested against CAAX prenyl protease 2 (Saccharomyces cerevisiae (strain ATCC 204508 / S288c)) (UniProt Q03530) (assay: blockers of Rce1 CaaX peptide cleavage – biochemical, fluorescence, cell-free homogeneous, primary screen (AID 2563)). Conditions: yeast membranes, quenched prenylated peptide cleavage fluorescence.
For `COc1ccc(C(=O)NCC2(N(C)C)CCCCC2)cc1`, the outcome was “inactive”. With `O=C(NCC1(N2CCCCC2)CCCCC1)c1cccc(Br)c1` the outcome was “inactive”. With `CCN1CCCC(OC(=O)C2(O)c3ccccc3C=Cc3ccccc32)C1` (stereo not drawn) the outcome was “inactive”. `Cc1cc(C(=O)NCC2(N3CCCCC3)CCCCC2)ccc1[N+](=O)[O-]` was tested, and the outcome was “inactive”. For `O=C(NCC1(N2CCCCC2)CCCCC1)c1cc(F)c(F)cc1Cl`, the outcome was “inactive”. `C=CCN1CCN(CCOC(=O)C(O)(c2ccccc2)c2ccccc2)CC1` was tested, and the outcome was “inactive”. For `CN(C)c1ccc(C(=O)NCC2(N(C)C)CCCCC2)cc1`, the outcome was “inactive”. For `CN(C)C1CCCC1OC(=O)C(O)(c1ccccc1)c1ccccc1` (stereo not drawn), the outcome was “inactive”. For `Cc1ccccc1C(=O)NCC1(N2CCCCC2)CCCCC1`, the outcome was “inactive”. For `COc1cc(SC)ccc1C(=O)NCC1(N(C)C)CCCCC1`, the outcome was “inactive”. `CCN(CC)CC(C)C(C)OC(=O)C(O)(c1ccccc1)c1ccccc1` (stereo not drawn) was tested, and the outcome was “inactive”. `CC(C)N1C(=O)CC2(CCN(CCOC(=O)C(O)(c3ccccc3)c3ccccc3)CC2)C1=O` was tested, and the outcome was “inactive”. With `CN1[C@@H]2CC[C@H]1CC(OC(=O)C(O)(c1ccccc1)c1ccccc1)C2` (stereo partly drawn) the outcome was “inactive”. In the case of `O=C(NCC1(N2CCCCC2)CCCCC1)c1cc([N+](=O)[O-])ccc1Cl`, the outcome is reported as “inactive”. `CC(C)Oc1ccc(C(=O)NCC2(N(C)C)CCCCC2)cc1` was tested, and the outcome was “inactive”. `CN(C)c1cccc(C(=O)NCC2(N(C)C)CCCCC2)c1` was tested, and the outcome was “inactive”. `COc1ccc(Br)c(C(=O)NCC2(N3CCCCC3)CCCCC2)c1` was tested, and the outcome was “inactive”. With `O=C(OC1CN2CCC1CC2)C(CO)(c1ccccc1)c1ccccc1` (stereo not drawn) the outcome was “inactive”. For `O=C(NCC1(N2CCCCC2)CCCCC1)c1cccc(Cl)c1`, the outcome was “inactive”. `COc1ccc(Cl)cc1C(=O)NCC1(N(C)C)CCCCC1` was tested, and the outcome was “inactive”. For `COc1cccc(C(=O)NCC2(N3CCCCC3)CCCCC2)c1`, the outcome was “inactive”. For `COc1cc(C(=O)NCC2(N(C)C)CCCCC2)c([N+](=O)[O-])cc1OC`, the outcome was “inactive”. With `CN(C)C1(CNC(=O)c2ccc(Br)cc2)CCCCC1` the outcome was “inactive”.
